Apparent affinities of Ab-14 variants for a coronavirus HR2 peptide

From the AlphaSeq antibody data of Li et al. 2023 (doi:10.1038/s41467-023-39022-2), copy in the FLAb collection.

Antigen: PDVDLGDISGINAS, a 14-residue peptide of the SARS-CoV-2 spike HR2 region.

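The starting antibody came from a phage panning campaign against this peptide. This is the validation round: designs drawn from the data on random variants, tested in the same kind of assay. Several design methods are mixed in this list. In AlphaSeq, yeast of one mating type display the scFv and yeast of the other type display the target. The frequency of each diploid, read from paired DNA barcodes, reflects how well the two displayed proteins bind. A regression on co-assayed BCL2-family reference pairs converts the normalised counts of each replicate to an apparent Kd. The assay was run in six technical replicates.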

Ab-14 is the parent antibody, in scFv form: VH, then three GGGGS repeats, then VL. The heavy chain is unchanged in all variants.
VH: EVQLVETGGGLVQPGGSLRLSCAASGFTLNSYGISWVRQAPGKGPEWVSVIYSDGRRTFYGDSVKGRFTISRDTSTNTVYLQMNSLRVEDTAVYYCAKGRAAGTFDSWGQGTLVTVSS
VL: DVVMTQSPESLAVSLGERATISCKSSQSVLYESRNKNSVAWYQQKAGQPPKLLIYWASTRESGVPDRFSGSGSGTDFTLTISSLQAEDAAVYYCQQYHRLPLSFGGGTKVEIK

The parent's light chain CDRs are KSSQSVLYESRNKNSVA, WASTRES, QQYHRLPLS; each variant's own CDRs replace them letter for letter. Affinities are written as log10 Kd with Kd in nM; a lower number is a better binder. Averages over replicates are reported, and they cover detected replicates only. Where no diploid with the target was found in any replicate, the entry reads "no signal": below detection, most likely a poor binder, though not proof of it. Of ten entries with the parent sequence, four were seen in most replicates (averages 0.34 to 2.37), three in one and three in none, so single entries are noisy. The authors' rule: three or more of the six replicates give a measured affinity, fewer mean a poor binder. A sequence that the file lists under several names has all its replicates pooled. Background: pairings of all light chain designs with three empty control strains gave a value in 4% of cases (median 2.64, 5th percentile 1.59). Values in that range, when seen in few replicates, are hard to tell from nonspecific mating. Values of this round are not directly comparable with the first-round values of the same sequences.

CDR-L1,CDR-L2,CDR-L3,"mean, log10 nM",seen in
DSSQSHLYESRNKNSVA,GASTRES,QQYHRLPLS,-0.01,6/6
KMSQSQEYESRNINSVA,NASTRLT,QQYHRLPLS,-0.08,6/6
KLLQEVTGHMRNRNSVA,HNSTRED,QQYDRLPLS,1.43,4/6
MISMEEAPASQNASSIA,QGGLRAE,QQYNRLPLC,0.84,6/6
KLSQSVLGQSRNKNSVA,HASTREQ,QDYHRLPLS,0.26,6/6
HLSQSVLYESRNKNSVA,HASTRCS,QQYHRLPLS,0.05,6/6
KWSCSQLYDSQNKNSVA,NASTREM,QQYHRLPLS,0.38,6/6
KLEQSVLYESRNKNSVA,NASTRSS,QQYHRLPLS,-0.34,6/6
KSSQSVLALSRNKNSVA,WASTRES,QQYARMPLS,2.03,4/6
MFAGAMYGGGNDWNNIA,EAMTYIK,QQYSRLPLI,2.13,1/6
KVGGVTNGISFSKNSVA,EQSTRED,QQYDRLPLS,0.95,6/6
KLSQSWLYESRNKWSVA,NASTRES,QQYHRLPLS,0.38,6/6
KVSQSVLFESRNKNNVA,WASTRES,TQYHRLPLS,no signal,0/6
KIEWFSQDNRLTISAIA,EASTIYQ,QQYGHLPLS,1.26,4/6
KSSQSVMYESRNKNSVA,AASTRET,QQYHRLPLS,0.93,2/6
MVKMELEEFAQDKHSVA,EAVERES,QQYHRLPII,2.08,6/6
KVSQSVLYESGLKNSVA,NASTRES,QQYHRLPLS,-0.02,6/6
AIVEDNAGEQKNSSNIA,SVDQRED,QQYQRLPLM,1.75,5/6
KVRQSTLYESRNKNSVA,SASTRES,QQYHRLPLS,-0.01,6/6
KSSISLLYESRNKNSVA,EASTRES,QQYHRLPLM,0.35,6/6
KSSQSKLYESRNKNSVA,WASTRCS,QQYHRLPLS,2.19,3/6
KLSISHQVESIHKSNVA,EMVTRES,QQYDRLPLS,0.65,6/6
KSSQSFLYESRNKNSVA,DASTRES,QQYHRLPLS,-0.07,12/12
MIAQMLGWESNKINSVA,QANLRTE,QQYDRLPLI,1.86,6/6
TISGVMTQMQHSKNNVA,EVSMRLD,QQYFRLPLE,1.02,6/6
KLPNSTLYESRNKNSVA,NASTRES,QQYHRLPLS,0.05,6/6
KSSQSVLWEERNKNSFA,GASTRES,QQYHRLPWS,no signal,0/6
TLTQVQGMESHNKDNVA,DLSTRGN,QQYHRLPLS,0.73,6/6
KLSFSELYESRNKNSVA,NASTRES,QQYHRLPLS,-0.15,6/6
KLSQSVLYESRNKNSVA,NASTRES,QCYHRLPLS,1.06,6/6
NVGQSMDGASRNKNSVA,HQSTRED,QHYHRLPLS,1.63,6/6
KSSQSDLYESRNKNSVA,WASTRSS,QQYHQLPLS,2.38,3/6
KLPLATMQESHSKNNVA,ELSTRGS,QQYHRLPLS,0.47,6/6
KLLQEVTGHSRNRNSVA,HNSTRED,QQYDRLPLM,2.37,3/6
KSSQSVLYEPNNKNSVA,WASTRES,QQYHRLPLS,1.35,6/6
KISQSIAFMSGNKNAIA,QMEMREE,QQYHRLPLS,0.50,6/6
TLQQSWEYGSRNKNSVA,NASQRED,QQYHRLPLS,-0.12,6/6
QVQYAPGESLRHTQSIA,DVNIKDM,QQYSRLPLS,2.15,5/6
KLSQSVGYESRNKNSVA,EASTRES,QQYHRLPLS,-0.11,6/6
KLSQSTLYESRNKNSVA,DASTRLS,QQYHRLPLS,-0.32,6/6
TISQMTSWMSNKKNNVA,EVSTREP,QQYDRLPLS,0.87,6/6
KSSQSVLYESQNKNQVA,WASTLES,QQYHVLPLS,no signal,0/6
KSFESVLVESRNNNSVA,AASTRES,QQYHRLPLS,1.48,6/6
KQSQSVLYESRNKNSVA,MASTRES,QQYHRLPLS,0.97,6/6
KLQQSVGYESRNKNNVA,EGSQRES,QQYHRLPLS,-0.34,6/6
KSSQSRLYESRNKNSVA,GASTRES,QQYHRLTLS,2.23,6/6
KQSQEHLYESRNKNSVA,DASTRES,QQYHRLPLS,-0.31,6/6
KSSQSVLYESRQSNSVA,WADTRES,QQYHRLPLS,2.36,4/6
KSSQSVLPESRNKNSVA,WKSIRES,QQYHSLPNS,no signal,0/6
IVTQLMLWGWHAKNSIA,EAEMRTN,QQYDRLPLI,1.76,5/6
QLFHRWGQLEEISYAVA,DATTVID,QQYMHLPLT,0.79,6/6
KSSQSVLYESRNKNSVA,AASIRIS,QQKHRLPLS,no signal,0/6
KSSQSVLYESNNKNSVA,WASTRES,QQYHRPPLS,2.09,6/6
KQSQSVLMESRNKNSVA,DASTRES,QQYHRLPLD,2.21,3/6
KLRQMTLTGGYFKNSVA,QASTREN,QSYHRLPLS,0.76,6/6
FLSQSVLYESRNKNSVA,NASQRES,QQYHRLPLS,-0.32,6/6
KSSQSVSYESRNKNSVA,WASTRES,QSYHRLPLS,2.94,3/6
KLSSVTGHMSMAKNNVA,EMVTREK,QQYNRLPLS,1.24,6/6
KSSQSKLYESRNKNSVA,EASTRES,QQYHRLPLS,0.68,6/6
MVNGIMDHLSKQTNNVA,ETETREE,QQYDRLPLS,0.94,6/6
KSSQSVLMESRNKNSVA,DASLRES,QQYHRLPLS,-0.27,6/6
KSSCSVLYESRNKNSVA,DGSTRES,QQYHRLPLS,-0.09,6/6
KIGMTLNQMYEKANNVA,DLVEREN,QQYHRLPLS,1.19,6/6
KSSQSVLYESRNKNSVA,WASTRES,QQYHGLPPS,no signal,0/6
KLPQWDLYEGRNKNSVA,SASTRFD,QQYHRLPLS,0.00,6/6
KLSMITGHMSMAKNNVA,EMVTREK,QQYNRLPLS,0.17,6/6
MISQLYNIGQFAINSVA,QASTRNA,QQYDRLPLI,2.19,2/6
KLSQSVLYESRNCNSVA,NASTRES,QQYHRLPLS,0.43,6/6
KLQQSWLYESRNCNSVA,NASTRES,QQYHRLPLS,0.38,6/6
TIPDLMGHVSKHTNNVA,DMDTRGD,QQYNRLPLS,0.05,6/6
KVSQSWLYESRNKNSVA,NASQRLS,QQYHRLPLS,0.10,6/6
KVSQSMDYESRNKNSVA,EASDRLS,QDYHRLPLS,0.81,6/6
KFQQSVLYESRNKNSVA,NGSTRES,QQYHRLPLS,-0.22,6/6
KQSQEHLYESRNKNSVA,DASTREQ,QQYHRLPLS,-0.24,6/6
KLSQSVLYESRNKNSVA,NASLRMS,QQYHRLPLS,0.35,6/6
HSSPSVPYESRNKNSVA,NASTREE,QDYHRLPLS,0.25,6/6
KISFLQNQTFEQSNNVA,EMVTREK,QQYNRLPLS,1.32,6/6
KQSQSVLYEMRNKNSVA,DASTRES,QQYHRLPLS,-0.15,6/6

The opening 10 entries, copied out:

{"CDR-L1": "DSSQSHLYESRNKNSVA", "CDR-L2": "GASTRES", "CDR-L3": "QQYHRLPLS", "mean, log10 nM": "-0.01", "seen in": "6/6"}
{"CDR-L1": "KMSQSQEYESRNINSVA", "CDR-L2": "NASTRLT", "CDR-L3": "QQYHRLPLS", "mean, log10 nM": "-0.08", "seen in": "6/6"}
{"CDR-L1": "KLLQEVTGHMRNRNSVA", "CDR-L2": "HNSTRED", "CDR-L3": "QQYDRLPLS", "mean, log10 nM": "1.43", "seen in": "4/6"}
{"CDR-L1": "MISMEEAPASQNASSIA", "CDR-L2": "QGGLRAE", "CDR-L3": "QQYNRLPLC", "mean, log10 nM": "0.84", "seen in": "6/6"}
{"CDR-L1": "KLSQSVLGQSRNKNSVA", "CDR-L2": "HASTREQ", "CDR-L3": "QDYHRLPLS", "mean, log10 nM": "0.26", "seen in": "6/6"}
{"CDR-L1": "HLSQSVLYESRNKNSVA", "CDR-L2": "HASTRCS", "CDR-L3": "QQYHRLPLS", "mean, log10 nM": "0.05", "seen in": "6/6"}
{"CDR-L1": "KWSCSQLYDSQNKNSVA", "CDR-L2": "NASTREM", "CDR-L3": "QQYHRLPLS", "mean, log10 nM": "0.38", "seen in": "6/6"}
{"CDR-L1": "KLEQSVLYESRNKNSVA", "CDR-L2": "NASTRSS", "CDR-L3": "QQYHRLPLS", "mean, log10 nM": "-0.34", "seen in": "6/6"}
{"CDR-L1": "KSSQSVLALSRNKNSVA", "CDR-L2": "WASTRES", "CDR-L3": "QQYARMPLS", "mean, log10 nM": "2.03", "seen in": "4/6"}
{"CDR-L1": "MFAGAMYGGGNDWNNIA", "CDR-L2": "EAMTYIK", "CDR-L3": "QQYSRLPLI", "mean, log10 nM": "2.13", "seen in": "1/6"}